US20090155270A1, “CASPASE INHIBITORS, […] 3 INHIBITORS, FOR THE TREATMENT OF INFLUENZA” (priority 2003, published 2009)

Test system: caspase activity (cleavage of the protein PARP)
Type: cell-based

Substance: XIAP
- inhibition of the caspase activity, measured by the reduced cleavage of the protein PARP: 40-50%
